## AlphaSeq binding of Ab-14 heavy chain variants to a spike HR2 peptide

All variants were tested on one target, the spike HR2 peptide PDVDLGDISGINAS (SARS-CoV-2).

Each scFv is VH, a (GGGGS)3 linker, VL, as in the parent Ab-14, and differs from it in the CDRs of the heavy chain only.
VH: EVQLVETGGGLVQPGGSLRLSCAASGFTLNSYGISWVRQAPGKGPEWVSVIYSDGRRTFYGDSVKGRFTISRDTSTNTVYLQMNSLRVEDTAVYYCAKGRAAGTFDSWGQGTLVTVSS
VL: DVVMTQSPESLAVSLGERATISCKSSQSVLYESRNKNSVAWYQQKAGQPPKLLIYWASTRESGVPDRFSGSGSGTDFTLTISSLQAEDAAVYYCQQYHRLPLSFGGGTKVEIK

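The parent was found by panning a naive human phage display library on the peptide. The library (AAYL49) carries one to three amino acid substitutions per variant, with no insertions or deletions. Affinity was read by AlphaSeq, a pooled yeast mating assay with surface-displayed partners. After mating in shaken culture at 30 °C for 16 h, diploids were selected and their barcode pairs sequenced. Scores were corrected for input abundance and mapped to Kd with protein pairs of known affinity run in the same pool. There are three technical replicates.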

Changes read parent residue, position, new residue, counted from the first residue of the VH shown.
The read-out is the apparent dissociation constant on a log10 scale (nM): the lower, the stronger.
A pair that was not seen in that replicate is written "ND"; this usually means weak binding, but a binder can also be missed.
Background: pairings of library AAYL49 with three empty control strains gave a value in 15% of cases (median 4.06, 5th percentile 2.83). Values in that range, when seen in few replicates, are hard to tell from nonspecific mating. Also given: how often the same scFv was detected with the empty control strains, with their mean in brackets.

| changes | log10 Kd (nM) by replicate | signal with controls |
|---|---|---|
| Y52A G103R F105M | 4.87 ND ND | 2/9 (4.33) |
| G33P S53P D62K | ND ND 4.53 | 1/9 (4.04) |
| G33C A101R S107L | ND ND ND | 3/9 (4.03) |
| S31A A101H T104F | ND ND ND | 0/9 |
| V64E A101L S107K | 2.14 1.97 1.96 | 0/9 |
| F27V N30E Y52N | ND ND ND | 0/9 |
| S63G K65L G103V | 3.97 1.90 2.40 | 0/9 |
| G33D Y52D T58Y | ND ND ND | 4/9 (3.95) |
| F59Q D62I K65Q | 3.48 2.87 2.12 | 0/9 |
| L29G | 3.17 ND ND | 4/9 (4.50) |
| G26Y A101F T104M | 2.68 2.26 ND | 0/9 |
| G26C V50A S63H | ND ND ND | 0/9 |
| F59C R100D A101T | 3.17 2.93 3.75 | 7/9 (4.46) |
| S35K A101S S107L | ND ND ND | 0/9 |
| T58W K65R T104D | ND ND ND | 2/9 (4.05) |
| S53E F59C T104P | 3.50 3.57 ND | 3/9 (3.53) |
| G61T R100F A102N | 3.64 ND ND | 0/9 |
| T28H N30L D62T | 4.47 3.10 3.67 | 1/9 (3.76) |
| I34D D62I A101F | ND ND ND | 0/9 |
| I34A S35R G103F | ND 5.66 6.01 | 5/9 (4.07) |
| S53F A102V S107R | ND ND ND | 0/9 |
| G26H N30K S35T | ND ND ND | 0/9 |
| Y52Q G99V R100I | ND ND ND | 0/9 |
| S31P I51P S63N | ND ND ND | 2/9 (3.50) |
| F59E V64N R100M | 5.18 3.95 ND | 3/9 (4.54) |
| F27H L29N G103W | ND ND ND | 4/9 (4.31) |
| G26I V64M S107D | ND ND ND | 1/9 (4.43) |
| D62W | 4.36 2.15 3.20 | 4/9 (3.71) |
| S31G S35V Y52H | ND ND ND | 0/9 |
| I34T R57D A102P | ND ND ND | 2/9 (4.55) |
| T28G V64Y S107Q | 2.12 2.56 ND | 1/9 (5.19) |

Excerpt, the final 2 entries:

| changes | log10 Kd (nM) by replicate | signal with controls |
|---|---|---|
| I34T R57D A102P | ND ND ND | 2/9 (4.55) |
| T28G V64Y S107Q | 2.12 2.56 ND | 1/9 (5.19) |

Reference: Engelhart et al. 2022, doi:10.1038/s41597-022-01779-4. File: FLAb, binding data.